Data from patent publication US8138374B2, “Composition for external application to skin” (Shiseido Company, Ltd., priority 2007, dated 2012).

Experiment: Solubility evaluation (appearance and solubility)
Assay type: physicochemical
Experimental: Appearance and solubility were evaluated for N,N-dimethyl-2-(methylamino)acetoamide, N,N-dimethyl-2-(methylamino) acetoamide hydrochloride and sarcosine. Furthermore, dissolution was evaluated based on appearance after preparing a solution at room temperature. The solubilities shown in the table indicate the concentration at which dissolution was confirmed, and those results shown with a “>” symbol in the table indicate the concentration at which the substance was confirmed to dissolve, and actual solubility is greater than or equal to this concentration.

## CNCC(=O)O [Sarcosine, reference compound]
  Appearance (Room Temperature): White crystal
